Test results: publication PMC4887496, “The Mouthparts Enriched Odorant Binding Protein 11 of the Alfalfa Plant Bug Adelphocoris lineolatus Displays a Preferential Binding Behavior to Host Plant Secondary Metabolites” (Frontiers in Physiology, 2016)

The chains behind the UniProt entries cited, without tags or fusion partners. Residues count along the entry.
UniProt F4Y5P9, 20-150 limits assumed: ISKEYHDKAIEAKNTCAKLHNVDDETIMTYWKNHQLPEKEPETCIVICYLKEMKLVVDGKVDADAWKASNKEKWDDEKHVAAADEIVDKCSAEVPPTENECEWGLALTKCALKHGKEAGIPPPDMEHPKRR

Target: recombinant AlinOBP11 (Adelphocoris lineolatus, UniProt F4Y5P9)
Conditions: 2 μM protein, 2 μM 1-NPN

In the case of `O=c1c(O)c(-c2ccc(O)c(O)c2)oc2cc(O)cc(O)c12` [Quercetin], the IC50 (read-out: IC50 (μM) AlinOBP11, 50 mM Tris-HCl pH 7.4, competitor 2 to 30 μM, 25°C) is reported as 3.36 µM and the Ki (read-out: Ki (μM) AlinOBP11, calculated from IC50: Ki = [IC50]/(1+[1-NPN]/K1-NPN), pH 7.4) is reported as 2.63 µM.
